Experimental data as given in US20250319056A1, “METHODS FOR TREATING CANCER” (THE TRUSTEES OF INDIANA UNIVERSITY, priority 2024, published 2025).

Assays:
[1] = in vitro; conditions: human
[2] = in vitro; conditions: human; remark: listed apart in the source
[3] = tested on: HCT-116 cells; experiment: AlamarBlue cell viability assay, HCT-116 colon cancer cells; type: cell-based, human

Compound | CC50 [1] [µM] | CC50 [2] [µM] | Average Selectivity Index [3]
Oc1c(Cl)cc(Cl)c(Cl)c1Cc1c(O)c(Cl)cc(Cl)c1Cl [Compound 32, Hexachlorophene, reference compound] | 56.6 | 40.2 | 10.5
COc1cc(NC(C)CCCN)c2ncccc2c1 (stereo not shown) [Compound 71, Primaquine, reference compound] |  |  | 6.2
